Antibody variant affinities, Ab-14 heavy chain, assay 1

From the AlphaSeq antibody data of Engelhart et al. 2022 (doi:10.1038/s41597-022-01779-4), copy in the FLAb collection.

Binding partner: SARS-CoV-2 spike HR2 peptide, sequence PDVDLGDISGINAS.

The variants keep the light chain, the linker and the frameworks of Ab-14 (scFv order VH, the linker GGGGSGGGGSGGGGS, VL).
VH: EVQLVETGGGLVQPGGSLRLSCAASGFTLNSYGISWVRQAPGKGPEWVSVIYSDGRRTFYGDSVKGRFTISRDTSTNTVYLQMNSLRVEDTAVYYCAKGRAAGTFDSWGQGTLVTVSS
VL: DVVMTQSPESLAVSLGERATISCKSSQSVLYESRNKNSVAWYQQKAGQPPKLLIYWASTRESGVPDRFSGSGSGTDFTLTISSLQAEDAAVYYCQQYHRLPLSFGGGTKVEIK

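Phage display of a naive human antibody library on the peptide gave the parent. AAYL49 was designed without a model: most single CDR substitutions and a random sample of double and triple ones. The assay is AlphaSeq: two haploid yeast populations carry antibody and antigen on their surface. Pairs that bind mate more often; barcode pairs of the diploids are counted by sequencing. Each replicate has its own calibration line, from reference interactions of the BCL2 family. Mating was done three times.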

Variants are written as CDR1, CDR2 and CDR3 of the heavy chain (limits as in the source). Parent: GFTLNSYGIS, VIYSDGRRTFYGDSVK, GRAAGTFDS.
Affinities are written as log10 Kd with Kd in nM; a lower number is a better binder.
"ND" marks a missing value. The strain was present, yet no cells mated with the target were sequenced in that replicate, which points to weak or no binding.
Three control strains display no target. For library AAYL49, 15% of the pairings with them gave a signal, with a median of 4.06 and one signal in twenty below 2.83, so weak values seen in few replicates may be background. For each scFv, signals with the empty controls are counted beside the result, with their mean in brackets.

CDR-H1	CDR-H2	CDR-H3	log10 Kd (nM) by replicate	control signals
GDTLNSYGIS	VIYSDGRRTFYGDSVH	GRAAGTFDS	2.79 2.17 2.15	9/9 (4.11)
GFTLCSYGIS	VNYSDGRRMFYGDSVK	GRAAGTFDS	ND ND ND	2/9 (3.52)
GFTGNSYGIS	VIYSDGGHTFYGDSVK	GRAAGTFDS	3.53 ND ND	2/9 (4.75)
GFTLNSYFIS	VIYMDGRRTFYGDKVK	GRAAGTFDS	ND 2.61 ND	1/9 (3.57)
GFTLMSYGIS	VIYSDGRRCFYGDCVK	GRAAGTFDS	ND ND ND	1/9 (3.73)
GFTLNSYGPS	VIYSDGRRTFIGDMVK	GRAAGTFDS	ND ND ND	1/9 (3.77)
GWTLNSYGIS	VIYSDGRRTFYGDSVK	DRAAGTGDS	ND ND ND	0/9
GFTLNSYGIS	VIYSDGGRTEYGDSVK	GRAANTFDS	ND 4.01 ND	1/9 (3.76)
GFTLNSYGIS	VIYSDGGRTFYGDSVK	IRAMGTFDS	ND ND 4.10	3/9 (4.32)
GFTLNSYGIS	TIYSDGRRTFSGDSVK	DRAAGTFDS	ND 4.08 ND	3/9 (3.36)
GFTHNSYQIS	VIYQDGRRTFYGDSVK	GRAAGTFDS	ND 4.12 ND	3/9 (4.19)
GKTLNSYGIS	VIRSDGRRTPYGDSVK	GRAAGTFDS	ND ND ND	1/9 (2.81)
GFGLNSYGIS	VIYSDGRRTFYVDSVK	GVAAGTFDS	0.67 0.96 0.93	0/9
GFTLNSYCIS	VIYSDGRRTFYGPSVC	GRAAGTFDS	3.11 ND ND	1/9 (2.74)
GFTLNSYGIS	VIYSDGRRTFYGDFVK	GMAAGTLDS	ND ND ND	0/9
GFTLNSYGIS	VIYSDGRITFYGDSVK	GRAAGEFDS	ND ND ND	0/9
GFTFNSFGIS	VIYSDGRLTFYGDSVK	GRAAGTFDS	3.98 ND ND	3/9 (3.93)
GFTLNSYGIS	VIYSDGRRTFYGDSLK	GCAAGTFDS	ND ND ND	0/9
GFTLNSYGIS	VIYSDNRRTFYGDSVM	GRAAGTIDS	ND ND ND	0/9
GFTLNSYPIP	VIYSDGRRTFYGDSVK	GRAAGNFDS	ND ND ND	0/9
GFTLNAYGPS	VIYSPGRRTFYGDSVK	GRAAGTFDS	4.72 3.51 4.65	7/9 (4.31)
GFTLNSYGIL	VIYSDGRRTMYGDSVK	GRAAKTFDS	ND 2.93 5.54	0/9
GFTLNSYGIS	VIYSDGRRTYYGDSVK	GRAKGTFFS	ND ND ND	0/9
GCTLNSYGIS	VIYSDGGRTFYGDSVK	GRAAGTFDS	ND ND ND	1/9 (4.18)
GFTLNSYGIS	VIYSHGRRTFYGDSVK	GRAAGTSDS	ND ND ND	0/9
YFTLNSYGIS	VIYEDGRRYFYGDSVK	GRAAGTFDS	ND ND ND	0/9
GFGLNSYGIS	VIYSDGRRTFQGDSVK	GRAFGTFDS	ND 4.02 4.54	3/9 (4.18)
GFTLNSYGIS	VIPSDGRRTFYGDSVK	GRAEGTFDR	5.33 ND ND	2/9 (3.95)
GFTLNSEGIS	VIYSDGRRTPYGDSVK	SRAAGTFDS	ND ND ND	0/9
MFTLNSYCIS	VIYSDGRRLFYGDSVK	GRAAGTFDS	ND ND ND	4/9 (3.63)
GFKLNSYGIS	WIYSDGRRTFQGDSVK	GRAAGTFDS	ND ND ND	2/9 (3.98)
GFTMNSYGIS	VIYSDGRRTFYQDSVK	PRAAGTFDS	ND ND ND	1/9 (3.52)
GFTLNSKKIS	VIYSDGRRTFYGDSVK	GRYAGTFDS	ND ND ND	2/9 (3.82)
GFTTNSYGIS	VIYSDGRRTFYGDSVK	GRAATTFDS	3.91 2.57 4.66	3/9 (3.84)
GFTRNSYGIS	VIYSDGRRTFYGDSVK	GRAVGQFDS	ND ND ND	2/9 (2.57)
GWTLNSYGIS	VIYSDGRRTFVGDSVK	GRAAGWFDS	3.73 ND 5.89	4/9 (3.96)
GFHLNSYGIS	VIYSDGRRTFVGDSVK	KRAAGTFDS	ND 4.97 ND	1/9 (3.69)
GFTLNSECIS	VIYSDGRRTFYGDSVK	GHAAGTFDS	4.55 ND ND	0/9
GHTLNSTGIS	VIYSDGRRTFYGDSVE	GRAAGTFDS	4.91 ND ND	5/9 (4.36)
GFTLNSYGIS	VIYSDGRVTFYGDSVK	GSAAGTFDH	ND ND ND	1/9 (3.47)
GFTLYSYGIS	VIYSDGRRTFYNDSKK	GRAAGTFDS	ND ND 5.15	0/9
GFTLNSYGIS	VIYSDGRRIFYGDSVK	GRAAGTFDF	2.36 2.21 2.08	2/9 (3.52)
GSTLNSYGIS	VIYVDGRRTFYGDSVK	GRAARTFDS	3.46 3.71 3.48	5/9 (4.13)
GFTLNSYGIS	VNYLDGRRTFYGDSVK	GRAVGTFDS	ND 4.99 3.41	4/9 (4.64)
GFTLNSYGIS	IIYSDGRRHFYGDSVK	GRAAGTFDC	3.19 3.62 ND	3/9 (3.82)
GFTLNSYGIS	VIYSGGRRTFKGDSVK	GRAAGTFDS	ND ND ND	2/9 (4.32)
GFTLNSYGIS	VIYCDGRRTFYGDSVK	GRAAGAFSS	ND ND ND	1/9 (3.17)
GFTLNSYGIS	VIYSDGRRTFYWDSVK	GRAAGTFDR	3.29 ND ND	1/9 (3.49)
GFYLNSYGIS	VIYSDGRRSFYGDCVK	GRAAGTFDS	ND ND ND	0/9

Repeated from above, the 6 best binders with a signal in all replicates:

CDR-H1	CDR-H2	CDR-H3	log10 Kd (nM) by replicate	control signals
GFGLNSYGIS	VIYSDGRRTFYVDSVK	GVAAGTFDS	0.67 0.96 0.93	0/9
GFTLNSYGIS	VIYSDGRRIFYGDSVK	GRAAGTFDF	2.36 2.21 2.08	2/9 (3.52)
GDTLNSYGIS	VIYSDGRRTFYGDSVH	GRAAGTFDS	2.79 2.17 2.15	9/9 (4.11)
GSTLNSYGIS	VIYVDGRRTFYGDSVK	GRAARTFDS	3.46 3.71 3.48	5/9 (4.13)
GFTTNSYGIS	VIYSDGRRTFYGDSVK	GRAATTFDS	3.91 2.57 4.66	3/9 (3.84)
GFTLNAYGPS	VIYSPGRRTFYGDSVK	GRAAGTFDS	4.72 3.51 4.65	7/9 (4.31)